Biological target: T1, Bovine serum albumin (BSA) (Bos taurus, UniProt P02769)
T1 construct: add 4 g of albumin (available from Sigma-Aldrich) from bovine serum (BSA) to 2000 mL of buffer solution; purchased Sigma-Aldrich A7906; host or cells: bovine serum (natural source)
Assay: In vitro active-protein interaction: BSA precipitation by the Bradford method
Format: biochemical
Settings: for Precipitation (BSA): screening test, 10% active solution; for Precipitation (BSA) / % BSA Precipitation: buffer pH 4.9; for % BSA Precipitation: dose-response assay
Experimental: Method 2: In Vitro Study to Evaluate Active-Protein Interaction
Bovine serum albumin (BSA) was used as the reference protein to generate the calibration curve. […] The BSA granular, the BSA solution standard and Bradford reagent were all obtained from Sigma-Aldrich (Catalog Number: A7906, PO834, B6916). The buffer solution was made by adding 875 mL of 0.1 Molar sodium hydroxide (SpecSol) to 125 mL 0.1 Molar potassium dihydrogen phosphate (Merck) and its pH was adjusted to BSA isoelectric point (pH 4.9).
1. Prepare buffer by adding 875 mL of 0.1 Molar sodium hydroxide to 125 mL of 0.1 Molar potassium dihydrogen phosphate, adjusted to pH 4.9. This is the buffer solution used to make the active sample solution, the dose-response curve and the protein solution.
2. To prepare an active sample solution for initial screening, add 5 g of the active material to 50 mL of the buffer solution.
3. To prepare the protein solution, add 4 g of albumin (available from Sigma-Aldrich) from bovine serum (BSA) to 2000 mL of buffer solution.
4. To prepare the reaction solution, add 10 mL of the sample solution (step 2) to 50 mL of the protein solution.
5. To prepare the analytical solution, after filtration through a 0.45 μm membrane, 0.01 mL of reaction solution (step 4) to 3 mL of the Bradford reagent. Measure and record the absorbance at 595 nm. Determine the protein concentration by comparison to the standard curve.

Amino acid sequences for entries named in this document (tags omitted). Residues count along the entry.
UniProt P02769, 25-607: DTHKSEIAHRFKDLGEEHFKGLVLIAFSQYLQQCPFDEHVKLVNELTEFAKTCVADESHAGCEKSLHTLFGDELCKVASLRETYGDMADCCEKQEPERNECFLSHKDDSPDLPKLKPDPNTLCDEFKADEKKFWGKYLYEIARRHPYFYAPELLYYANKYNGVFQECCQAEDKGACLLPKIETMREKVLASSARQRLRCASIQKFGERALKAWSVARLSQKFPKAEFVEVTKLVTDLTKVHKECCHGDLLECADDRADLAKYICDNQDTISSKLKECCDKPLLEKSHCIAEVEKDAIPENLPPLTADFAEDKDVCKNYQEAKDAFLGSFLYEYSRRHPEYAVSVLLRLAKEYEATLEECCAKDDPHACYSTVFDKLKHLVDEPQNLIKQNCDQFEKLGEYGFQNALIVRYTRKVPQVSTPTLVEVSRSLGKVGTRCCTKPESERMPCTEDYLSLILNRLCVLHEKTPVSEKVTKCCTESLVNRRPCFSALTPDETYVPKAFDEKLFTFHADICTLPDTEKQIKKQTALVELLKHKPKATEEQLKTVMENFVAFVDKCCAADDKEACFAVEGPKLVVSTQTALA

SMILES | Precipitation (BSA) | also measured
CC(O)C(=O)O.N (stereo not shown) [Ammonium lactate] | 10% | 
CC(O)C(=O)[O-].CC(O)C(=O)[O-].[Zn+2] (stereo not shown) [Zinc Lactate (food), zinc lactate] | 5% | 
CC(O)C(=O)[O-].CC(O)C(=O)[O-].[Ca+2] (stereo not shown) [Calcium lactate] | 8% | 
CC(O)C(=O)[O-].CC(O)C(=O)[O-].[Zn+2] (stereo not shown) [Zinc Lactate (pharma), zinc lactate] | 31% | % BSA Precipitation (1% solution): 9%; % BSA Precipitation (5% solution): 7%; % BSA Precipitation (10% solution): 13%; % BSA Precipitation (15% solution): 18%; Potential to be clogging agents (protein precipitation) (summary of Tables 2 and 3): demonstrated potential to be clogging agents
O=S(=O)([O-])[O-].[Na+].[Na+] [Sodium sulfate] | 9% | 

Reference: patent publication US20160089321A1, “ANTIPERSPIRANT COMPOSITIONS” (Johnson & Johnson Consumer Inc., priority 2014, published 2016)
